Tested on: RRV-induced biliary atresia

For `OCCN(CCO)c1nc(N2CCCCC2)c2nc(N(CCO)CCO)nc(N3CCCCC3)c2n1` [Dipyridamole], which jaundice (50 μg Dip per 2 g weight i.p.) is on record?
Its jaundice is “without jaundice”.

What about the weights of mice (50 μg Dip per 2 g weight i.p. before RRV and on days 3, 6, 9, end day 12) of the same molecule?
The weights of mice was “increase”.

Source: patent US20230111925A1, “FIBROTIC DISEASE MECHANISM AND THERAPEUTIC DRUG THEREFOR” (GUANGZHOU WOMEN AND CHILDREN'S MEDICAL CENTER, priority 2020, published 2023)
